# Only a part is listed here, and it is no random draw. Active and inactive are the calls of the source. Rule as the data show it: active = inhibition above about 30%; inactive = the rest.
# By UniProt entry, the sequences of proteins in these tests, tags left out. Where a name states a change or a piece, a line headed by the entry shows the natural chain unless it says otherwise.
# UniProt P09936: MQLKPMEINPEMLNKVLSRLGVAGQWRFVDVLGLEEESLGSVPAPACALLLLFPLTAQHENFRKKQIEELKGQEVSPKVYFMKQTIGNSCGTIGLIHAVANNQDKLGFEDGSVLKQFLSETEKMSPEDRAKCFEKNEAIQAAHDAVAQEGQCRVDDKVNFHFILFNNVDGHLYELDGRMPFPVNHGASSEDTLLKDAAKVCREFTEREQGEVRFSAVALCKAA
# Molecular target: Ubiquitin carboxyl-terminal hydrolase isozyme L1 (Homo sapiens) (UniProt P09936)
# Test: blocks human UCHL1 ubiquitin-rhodamine cleavage (AID 1645859)
# Conditions: purified UCHL1, Ub-rhodamine cleavage fluorescence; at 20 µM; active compounds read high
row,SMILES,inhibition
1,N#Cc1cccc(C(=O)N(Cc2ccco2)C2CCN(CCc3ccc(Cl)cc3)CC2)c1,inactive: -1.77%
2,Cc1[nH]c2c(N(C(=O)Nc3ccccc3)C3CCN(Cc4ccccc4)CC3)cccc2c1C,inactive: -7.51%
3,COc1ccc(CCN2CCC(N(Cc3cccnc3)C(=O)c3cccc(C#N)c3)CC2)cc1,inactive: -8.43%
4,O=C(c1ccc2c(c1)OCO2)N(Cc1ccco1)C1CCN(CCc2ccccn2)CC1,inactive: 4.06%
5,O=C(COC(=O)C(O)(c1ccccc1)c1ccccc1)NCc1ccc2c(c1)OCO2,inactive: -1.57%
6,CS(=O)(=O)c1ccc(C(=O)N(Cc2ccco2)C2CCN(CCc3ccccn3)CC2)cc1,inactive: -3.45%
7,N#Cc1cccc(C(=O)N(Cc2cccnc2)C2CCN(CCc3ccccn3)CC2)c1,inactive: -4.28%
8,CS(=O)(=O)c1ccc(C(=O)N(Cc2cccnc2)C2CCN(CCc3ccc(Cl)cc3)CC2)cc1,inactive: -23.2%
9,N#Cc1cccc(C(=O)N(Cc2ccco2)C2CCN(CCc3ccccn3)CC2)c1,inactive: -4.41%
10,CN1C(=O)C2C(NC(=NCc3ccco3)N2CCc2ccccc2)N(C)C1=O (stereo unspecified),inactive: -0.213%
11,COc1ccc(CCN2CCC(N(Cc3ccco3)C(=O)c3ccc(S(C)(=O)=O)cc3)CC2)cc1,inactive: -5.48%

# Reference: PubChem BioAssay AID1645859 (Buhrlage Lab, Dana-Farber Cancer Institute and Novartis …, 2021)
